## AlphaSeq binding of Ab-14 light chain variants to a spike HR2 peptide

Target peptide (SARS-CoV-2 spike, HR2 region): PDVDLGDISGINAS

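Phage display of a naive human antibody library on the peptide gave the parent. These sequences belong to a second round, designed from the earlier measurements on random variants of the parent. Their group label is 14L_En_Gibbs (En: ensemble of fine-tuned language models; Gibbs: Gibbs sampling). Affinity was read by AlphaSeq, a pooled yeast mating assay with surface-displayed partners. After mating in shaken culture at 30 °C for 16 h, diploids were selected and their barcode pairs sequenced. Read counts were normalised to the haploid input and turned into Kd by a linear fit to BCL2-family pairs of known affinity, for each replicate. Mating was done six times.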

Each scFv is VH, the linker GGGGSGGGGSGGGGS, VL, as in the parent Ab-14, and differs from it in the CDRs of the light chain only.
VH: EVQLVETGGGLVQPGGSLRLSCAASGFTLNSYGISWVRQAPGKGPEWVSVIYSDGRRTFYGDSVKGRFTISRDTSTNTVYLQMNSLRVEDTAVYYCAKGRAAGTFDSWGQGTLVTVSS
VL: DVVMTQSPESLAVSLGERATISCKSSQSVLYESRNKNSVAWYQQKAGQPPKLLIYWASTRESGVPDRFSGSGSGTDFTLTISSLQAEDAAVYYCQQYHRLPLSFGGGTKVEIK

Each variant is given by its three light chain CDRs, as the data file delimits them; those of the parent are KSSQSVLYESRNKNSVA, WASTRES, QQYHRLPLS. Numbers give log10(Kd / nM), so 0 is 1 nM and 3 is 1 µM. Smaller is tighter. A mean of the replicates is given; it leaves out those without a signal. Where no diploid with the target was found in that replicate, the entry reads "ND": below detection, most likely a poor binder, though not proof of it. Of ten entries with the parent sequence, four were seen in most replicates (averages 0.34 to 2.37), three in one and three in none, so single entries are noisy. As a blank, each scFv also met three strains without target: over all light chain designs, 4% of these pairings were detected, typically at 2.64 and seldom below 1.59. The control count says in how many pairings with the empty strains this scFv gave a signal, with their mean in brackets. The range of this assay differs from that of the first round, and the authors advise against merging the two. In the paper, a design with two or fewer of six values counts as a poor binder.

{"CDR-L1": "KIEQSLFPYGPSWHSVA", "CDR-L2": "NANTLLA", "CDR-L3": "QQYYMLPLM", "log10 Kd, replicates": "0.97 0.64 0.79 0.83 0.69 0.77", "mean, log10 nM": "0.78", "empty controls": "2/18 (3.63)"}
{"CDR-L1": "KINERMRMGENQQHSIA", "CDR-L2": "NAATIVK", "CDR-L3": "QQYHNLPLG", "log10 Kd, replicates": "0.72 0.46 0.25 0.26 0.35 0.44", "mean, log10 nM": "0.41", "empty controls": "1/18 (2.22)"}
{"CDR-L1": "KVSIFMLTMDNAWSSIA", "CDR-L2": "NEAATRT", "CDR-L3": "QQYQRLPLS", "log10 Kd, replicates": "ND ND ND ND ND ND", "mean, log10 nM": "ND", "empty controls": "1/18 (2.39)"}
{"CDR-L1": "KLYQVTTHHGATLNNIA", "CDR-L2": "EGARRND", "CDR-L3": "QQYARLPLV", "log10 Kd, replicates": "0.38 0.23 0.06 -0.05 0.30 0.06", "mean, log10 nM": "0.16", "empty controls": "0/18"}
{"CDR-L1": "HLQEQSFVGQKDKWSVA", "CDR-L2": "ETECKYN", "CDR-L3": "QQYAQLPLM", "log10 Kd, replicates": "ND 1.01 1.28 1.42 1.46 2.34", "mean, log10 nM": "1.50", "empty controls": "0/18"}
{"CDR-L1": "ALTNEPESVDHHLNNIA", "CDR-L2": "STSKRCM", "CDR-L3": "QQYARLPLS", "log10 Kd, replicates": "0.20 0.03 0.67 0.51 0.31 0.53", "mean, log10 nM": "0.37", "empty controls": "0/18"}
{"CDR-L1": "NLMHHQGRYDVWKESIA", "CDR-L2": "EASIRAS", "CDR-L3": "QQYFRLPLA", "log10 Kd, replicates": "0.95 0.74 1.80 0.24 1.80 1.81", "mean, log10 nM": "1.22", "empty controls": "0/18"}
{"CDR-L1": "YMSGQEPGDWNQQEAIA", "CDR-L2": "EVTYKEH", "CDR-L3": "QQYYRLPLS", "log10 Kd, replicates": "ND ND ND ND ND ND", "mean, log10 nM": "ND", "empty controls": "0/18"}
{"CDR-L1": "KLGGESYNSTYEMDAVA", "CDR-L2": "DQNTTYE", "CDR-L3": "QHYSRLPLT", "log10 Kd, replicates": "ND 3.30 ND ND ND ND", "mean, log10 nM": "3.30", "empty controls": "2/18 (2.48)"}
{"CDR-L1": "MITGSMENEWSNKNPVA", "CDR-L2": "SATCKAP", "CDR-L3": "QQYFRLPLM", "log10 Kd, replicates": "1.33 1.03 0.61 0.74 0.89 0.93", "mean, log10 nM": "0.92", "empty controls": "1/18 (3.93)"}
{"CDR-L1": "SMYPFDVAIGKGTQNVA", "CDR-L2": "HVSVRAS", "CDR-L3": "QQYDRLPLV", "log10 Kd, replicates": "1.08 0.89 0.92 0.81 0.88 1.23", "mean, log10 nM": "0.97", "empty controls": "0/18"}
{"CDR-L1": "SITYLDNRGSQGHNNIA", "CDR-L2": "SGSCRAE", "CDR-L3": "QQYIRLPLI", "log10 Kd, replicates": "0.28 0.34 0.13 0.18 0.42 0.41", "mean, log10 nM": "0.29", "empty controls": "3/18 (2.35)"}
{"CDR-L1": "HVMHEQLDYKNYENNIA", "CDR-L2": "HESQRLY", "CDR-L3": "QQYSQLPLS", "log10 Kd, replicates": "1.37 1.51 0.99 1.12 0.81 1.23", "mean, log10 nM": "1.17", "empty controls": "1/18 (1.77)"}
{"CDR-L1": "KLTDYMQGSIAMDNSIA", "CDR-L2": "QTNIYHE", "CDR-L3": "QQYGRLPLV", "log10 Kd, replicates": "0.64 0.87 1.70 1.42 1.64 1.28", "mean, log10 nM": "1.26", "empty controls": "0/18"}
{"CDR-L1": "KFDDSMVEWDANQSQVA", "CDR-L2": "DHAEAQH", "CDR-L3": "QQYDRLPLS", "log10 Kd, replicates": "ND ND ND ND ND ND", "mean, log10 nM": "ND", "empty controls": "0/18"}
{"CDR-L1": "NLTDAMASWTGDRHSIA", "CDR-L2": "DKTVTAP", "CDR-L3": "QQYSRLPIT", "log10 Kd, replicates": "ND ND ND ND ND ND", "mean, log10 nM": "ND", "empty controls": "1/18 (2.99)"}
{"CDR-L1": "KIQQTHVGNEKKMEAIA", "CDR-L2": "QGDQRCQ", "CDR-L3": "QSYDRLPLS", "log10 Kd, replicates": "0.26 0.46 0.25 -0.14 0.22 0.24", "mean, log10 nM": "0.21", "empty controls": "0/18"}
{"CDR-L1": "KVAQGIYEPKRHSHNIA", "CDR-L2": "EASHLCD", "CDR-L3": "QQYARLPLE", "log10 Kd, replicates": "0.57 0.76 0.39 0.69 1.18 0.99", "mean, log10 nM": "0.76", "empty controls": "0/18"}
{"CDR-L1": "KLWGRCMDEELINYSVA", "CDR-L2": "NGRLAVQ", "CDR-L3": "QQYDRLPLS", "log10 Kd, replicates": "ND ND ND ND ND ND", "mean, log10 nM": "ND", "empty controls": "0/18"}
{"CDR-L1": "NLSIQTQHQNMDANAVA", "CDR-L2": "QTEIREV", "CDR-L3": "QQYAQLPLA", "log10 Kd, replicates": "1.17 ND 3.40 1.86 2.85 3.28", "mean, log10 nM": "2.51", "empty controls": "2/18 (2.02)"}
{"CDR-L1": "SFDLTKSGMENERYSIA", "CDR-L2": "ETSTLMT", "CDR-L3": "QDYARLPLY", "log10 Kd, replicates": "0.53 0.14 0.69 0.40 0.76 0.79", "mean, log10 nM": "0.55", "empty controls": "0/18"}
{"CDR-L1": "NLNDSDNQMPQMTSNIA", "CDR-L2": "QTTLRNE", "CDR-L3": "QQYAKLPLS", "log10 Kd, replicates": "0.11 -0.31 -0.42 -0.66 -0.31 -0.67", "mean, log10 nM": "-0.38", "empty controls": "0/18"}
{"CDR-L1": "MVNGHLVHQANRDNNIA", "CDR-L2": "EAQMVAA", "CDR-L3": "QDYHRLPLI", "log10 Kd, replicates": "1.35 1.22 1.38 1.51 1.39 1.40", "mean, log10 nM": "1.37", "empty controls": "1/18 (2.50)"}
{"CDR-L1": "QLFFNDFQLDIESQNIA", "CDR-L2": "HASLRYV", "CDR-L3": "QQYARLPLV", "log10 Kd, replicates": "1.15 0.92 1.18 1.09 1.50 1.54", "mean, log10 nM": "1.23", "empty controls": "0/18"}
{"CDR-L1": "RVSSNLMAGEIHYNNIA", "CDR-L2": "NTKVLEY", "CDR-L3": "QQYMRLPLG", "log10 Kd, replicates": "-0.41 0.15 -0.35 -0.25 -0.31 -0.06", "mean, log10 nM": "-0.20", "empty controls": "0/18"}
{"CDR-L1": "SLVQEKSVGDKNMGNIA", "CDR-L2": "AANQLSV", "CDR-L3": "QQYNRLPLS", "log10 Kd, replicates": "0.19 -0.01 -0.02 -0.13 -0.12 0.06", "mean, log10 nM": "-0.01", "empty controls": "0/18"}

A selection of 3 entries from above:

{"CDR-L1": "KLYQVTTHHGATLNNIA", "CDR-L2": "EGARRND", "CDR-L3": "QQYARLPLV", "log10 Kd, replicates": "0.38 0.23 0.06 -0.05 0.30 0.06", "mean, log10 nM": "0.16", "empty controls": "0/18"}
{"CDR-L1": "NLTDAMASWTGDRHSIA", "CDR-L2": "DKTVTAP", "CDR-L3": "QQYSRLPIT", "log10 Kd, replicates": "ND ND ND ND ND ND", "mean, log10 nM": "ND", "empty controls": "1/18 (2.99)"}
{"CDR-L1": "NLMHHQGRYDVWKESIA", "CDR-L2": "EASIRAS", "CDR-L3": "QQYFRLPLA", "log10 Kd, replicates": "0.95 0.74 1.80 0.24 1.80 1.81", "mean, log10 nM": "1.22", "empty controls": "0/18"}

Values reported by Li et al. 2023, doi:10.1038/s41467-023-39022-2 (FLAb copy).